Reference: PubChem BioAssay AID2237 (Johns Hopkins Ion Channel Center, 2010)
The entries are a selection whose mix differs from that of the whole data set. Active and inactive are the calls of the source.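 Rule for the calls: active = B-score above 5 SD of library B-scores, and initial fluorescence ratio not above library mean plus 5 SD; inactive = the rest.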

By UniProt entry, the sequences of proteins in these tests, tags left out.
UniProt Q9QUQ5, whole entry: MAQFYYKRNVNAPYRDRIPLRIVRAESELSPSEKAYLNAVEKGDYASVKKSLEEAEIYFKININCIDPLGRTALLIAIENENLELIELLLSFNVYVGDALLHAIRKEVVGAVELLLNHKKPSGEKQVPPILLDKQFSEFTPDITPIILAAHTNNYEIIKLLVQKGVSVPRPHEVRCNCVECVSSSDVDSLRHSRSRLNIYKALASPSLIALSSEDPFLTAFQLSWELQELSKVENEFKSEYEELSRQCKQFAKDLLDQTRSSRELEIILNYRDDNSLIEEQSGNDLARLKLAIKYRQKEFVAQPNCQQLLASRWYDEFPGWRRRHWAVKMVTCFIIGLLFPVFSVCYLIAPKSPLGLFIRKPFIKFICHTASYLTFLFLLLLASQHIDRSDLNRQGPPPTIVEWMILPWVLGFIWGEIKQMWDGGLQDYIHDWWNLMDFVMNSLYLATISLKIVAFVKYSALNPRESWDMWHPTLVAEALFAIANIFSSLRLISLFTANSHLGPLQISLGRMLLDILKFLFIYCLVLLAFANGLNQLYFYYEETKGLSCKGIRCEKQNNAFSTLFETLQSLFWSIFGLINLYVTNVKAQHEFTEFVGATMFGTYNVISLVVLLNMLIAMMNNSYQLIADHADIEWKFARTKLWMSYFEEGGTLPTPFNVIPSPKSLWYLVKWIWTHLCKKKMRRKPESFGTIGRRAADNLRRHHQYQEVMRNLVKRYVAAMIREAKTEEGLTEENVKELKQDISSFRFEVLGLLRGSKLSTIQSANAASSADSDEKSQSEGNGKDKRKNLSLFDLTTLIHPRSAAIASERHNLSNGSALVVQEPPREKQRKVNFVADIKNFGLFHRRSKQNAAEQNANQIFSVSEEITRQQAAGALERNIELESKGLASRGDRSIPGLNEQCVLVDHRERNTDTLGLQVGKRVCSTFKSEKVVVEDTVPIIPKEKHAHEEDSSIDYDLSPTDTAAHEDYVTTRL

The compounds below were run against Short transient receptor potential channel 4 (Mus musculus) (UniProt Q9QUQ5) (assay: activators of mouse TRPC4 channel, primary screen, Fluo4 calcium, HEK293 TRPC4beta/mu-opioid cells (AID 2237)). Details: Fluo4 calcium fluorescence, at 10 µM.
For COc1cc(OC)cc(C(=O)NCC2(N3CCCCC3)CCCCC2)c1, the outcome was “inactive”.
With Fc1ccccc1NC1CCN(Cc2ccccc2)CC1 the outcome was “inactive”.
In the case of Cc1ccc(C(=O)NCC2(N3CCCCC3)CCCCC2)o1, the outcome was “inactive”.
With CCN1CCC(Nc2cccc(F)c2)CC1 the outcome was “inactive”.
CN(C)c1ccc(C(=O)NCC2(N3CCCCC3)CCCCC2)cc1 was tested, and the outcome was “inactive”.
CN1CCC(Nc2ccc(F)c(Cl)c2)CC1 was tested, and the outcome was “inactive”.
For CCOc1ncccc1C(=O)NCC1(N2CCOCC2)CCCCC1, the outcome was “inactive”.
With O=C(O)C1(Nc2ccccc2)CCN(Cc2ccccc2)CC1 the outcome was “inactive”.
In the case of CC(C)(C)OC(=O)N1CCC(Nc2ccccc2)CC1, the outcome was “inactive”.
For CCCOc1ccc(C(=O)NCC2(N(C)C)CCCCC2)cc1, the outcome was “inactive”.
In the case of COc1cccc(C(=O)N(c2cc(C)cc(C)c2)C2CCN(C(=O)OC(C)(C)C)CC2)c1, the outcome was “inactive”.
For COc1cc(OC)cc(C(=O)NCC2(N3CCOCC3)CCCCC2)c1, the outcome was “inactive”.
For CCC(CO)(C(=O)OC1CN2CCC1CC2)c1ccccc1 (centres undefined), the outcome was “inactive”.
With CN1CCC(Nc2ccc(Cl)cc2)CC1 the outcome was “inactive”.
CCCOc1ccc(C)cc1CN(CCCl)CCCl was tested, and the outcome was “inactive”.
For COc1ccc(C(=O)NCC2(N3CCOCC3)CCCCC2)cc1OC, the outcome was “inactive”.
In the case of CCOC(=O)N1CCC(Nc2ccc(C)cc2)CC1, the outcome was “inactive”.
For N/C(=N\O)c1c(N)no[n+]1[O-], the outcome was “inactive”.
In the case of O=C(OC1CN2CCC1CC2)C1c2ccccc2C=Cc2ccccc21 (centres undefined), the outcome was “inactive”.
CCc1cc(C(=O)NCC2(N3CCCCC3)CCCCC2)sc1C was tested, and the outcome was “inactive”.
With N#Cc1ccc(C(=O)NCC2(N3CCCCC3)CCCCC2)cc1 the outcome was “inactive”.
For CC(C)(C)OC(=O)N1CCC(N(C(=O)c2ccccc2)c2ccc(Cl)cc2)CC1, the outcome was “inactive”.
With CN(C)C1(CNC(=O)c2cccc(C#N)c2)CCCCC1 the outcome was “inactive”.
In the case of CCCN1CCC(Nc2cc(OC)cc(OC)c2)CC1, the outcome was “inactive”.
In the case of c1ccc(CN2CCC(Nc3ccccc3)CC2)cc1, the outcome was “inactive”.
O=C(NCC1(N2CCCCC2)CCCCC1)c1ccc(OC(F)F)cc1 was tested, and the outcome was “inactive”.
In the case of N#CC1(Nc2ccccc2)CCN(CCc2ccccc2)CC1, the outcome was “inactive”.
CCN1CCC(Nc2ccc(Cl)cc2)CC1 was tested, and the outcome was “inactive”.
O=C(NCC1(N2CCCCC2)CCCCC1)c1cccc([N+](=O)[O-])c1 was tested, and the outcome was “inactive”.
With O=C(NCC1(N2CCCCC2)CCCCC1)c1cccc(C(F)(F)F)c1 the outcome was “inactive”.
With O=C(NCC1(N2CCOCC2)CCCCC1)c1cc(=O)[nH]c2ccccc12 the outcome was “inactive”.
COc1cc(C(=O)NCC2(N3CCCCC3)CCCCC2)ccc1OC(F)F was tested, and the outcome was “inactive”.
For COc1ccc(NC2CCN(C(=O)OC(C)(C)C)CC2)cc1, the outcome was “inactive”.
In the case of CN1CCN(CCOC(=O)C(O)(c2ccccc2)c2ccccc2)CC1, the outcome was “inactive”.
With CC(C)c1ccc(NC2CCN(C(=O)OC(C)(C)C)CC2)cc1 the outcome was “inactive”.
CN(C)c1cccc(C(=O)NCC2(N3CCCCC3)CCCCC2)c1 was tested, and the outcome was “inactive”.
COc1ccc(CN(CCCl)CCCl)cc1Cl was tested, and the outcome was “inactive”.
In the case of COc1cc(OC)c(C(=O)NCC2(N(C)C)CCCCC2)cc1OC, the outcome was “inactive”.
With CN1CCC(Nc2cccc(F)c2)CC1 the outcome was “inactive”.
In the case of CCCOc1ccc(C(=O)NCC2(N(C)C)CCCCC2)cc1OC, the outcome was “inactive”.
In the case of COc1ccc(C(=O)NCC2(N3CCCCC3)CCCCC2)c(OC)c1OC, the outcome was “inactive”.
For CC(C)(C)OC(=O)N1CCC(N(C(=O)c2ccccc2)c2ccc(F)cc2)CC1, the outcome was “inactive”.
In the case of COc1ccc(C(=O)NCC2(N3CCCCC3)CCCCC2)cc1, the outcome was “inactive”.
O=C(NCC1(N2CCCCC2)CCCCC1)c1cccs1 was tested, and the outcome was “inactive”.
With O=C(NCC1(N2CCCCC2)CCCCC1)c1ccc(=O)[nH]c1 the outcome was “inactive”.
CSc1ccccc1C(=O)NCC1(N2CCCCC2)CCCCC1 was tested, and the outcome was “inactive”.
With Cc1cc(C)cc(N(C(=O)c2ccccc2)C2CCN(C(=O)OC(C)(C)C)CC2)c1 the outcome was “inactive”.
O=C(NCC1(N2CCCCC2)CCCCC1)c1ccc(Cl)nc1 was tested, and the outcome was “inactive”.
In the case of O=C(NCC1(N2CCOCC2)CCCCC1)c1cc2ccccc2o1, the outcome was “inactive”.
In the case of O=C(OC1CN2CCC1CC2)C1c2ccccc2Oc2ccccc21 (centres undefined), the outcome was “inactive”.
For N#CC1(Nc2ccccc2)CCN(Cc2ccccc2)CC1, the outcome was “inactive”.
In the case of CCOC(=O)N1CCC(Nc2ccc(OC)cc2)CC1, the outcome was “inactive”.
With CCOc1ccc(C)cc1CN(CCCl)CCCl the outcome was “inactive”.
In the case of CCOC(=O)N1CCC(Nc2ccc(F)cc2)CC1, the outcome was “inactive”.
In the case of COc1ccc(NC2CCN(CCc3ccccc3)CC2)c(OC)c1, the outcome was “inactive”.
For O=C(NCC1(N2CCCCC2)CCCCC1)c1ccc(F)cc1, the outcome was “inactive”.
Cc1ccc(OCC(C)C)c(CN(CCCl)CCCl)c1 was tested, and the outcome was “inactive”.
COc1cc(C(=O)NCC2(N(C)C)CCCCC2)ccc1OC(F)F was tested, and the outcome was “inactive”.
For CCOC(=O)N1CCC(Nc2cccc(C)c2)CC1, the outcome was “inactive”.
